Results as given in paper PMC6465774 (Frontiers in Pharmacology, 2019).

Chains of the proteins cited; added tags and fusions are not shown.
UniProt P33535, whole entry: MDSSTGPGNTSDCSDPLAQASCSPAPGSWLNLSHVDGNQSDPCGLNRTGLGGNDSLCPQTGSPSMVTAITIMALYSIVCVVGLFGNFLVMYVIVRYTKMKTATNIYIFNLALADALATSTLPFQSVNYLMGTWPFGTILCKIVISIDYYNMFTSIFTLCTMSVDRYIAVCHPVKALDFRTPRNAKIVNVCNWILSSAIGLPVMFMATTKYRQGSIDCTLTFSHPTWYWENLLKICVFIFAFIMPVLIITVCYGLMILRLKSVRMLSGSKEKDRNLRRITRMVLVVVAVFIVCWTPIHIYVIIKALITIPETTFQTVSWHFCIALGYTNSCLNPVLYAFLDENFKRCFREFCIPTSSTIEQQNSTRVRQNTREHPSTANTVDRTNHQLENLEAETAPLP

Target: T1, MOR (Rattus norvegicus, UniProt P33535)
T1 construct: incubating 50–100 μg of membrane protein of lumbar dorsal horn with 0.1- 4 nM; from tissue; host or cells: rat lumbar (L3-5) dorsal spinal cord / dorsal horn membranes, diabetic and control rats
Assay: [3H]DAMGO saturation binding in dorsal spinal cord membranes
Conditions: dorsal horn membranes of control rats; read-out: dissociation constant (Kd), control rats

With `C[C@@H](NC(=O)[C@@H](N)Cc1ccc(O)cc1)C(=O)NCC(=O)N(C)[C@@H](Cc1ccccc1)C(=O)NCCO` [DAMGO, Tyr-D-Ala-Gly-(NMe)Phe-Gly-ol] the Kd was 0.29 ± 0.17 nM.
